Source: ChEMBL document CHEMBL1123905

Amino acid sequences for entries named in this document (tags omitted).
UniProt P47747, whole entry, looked up: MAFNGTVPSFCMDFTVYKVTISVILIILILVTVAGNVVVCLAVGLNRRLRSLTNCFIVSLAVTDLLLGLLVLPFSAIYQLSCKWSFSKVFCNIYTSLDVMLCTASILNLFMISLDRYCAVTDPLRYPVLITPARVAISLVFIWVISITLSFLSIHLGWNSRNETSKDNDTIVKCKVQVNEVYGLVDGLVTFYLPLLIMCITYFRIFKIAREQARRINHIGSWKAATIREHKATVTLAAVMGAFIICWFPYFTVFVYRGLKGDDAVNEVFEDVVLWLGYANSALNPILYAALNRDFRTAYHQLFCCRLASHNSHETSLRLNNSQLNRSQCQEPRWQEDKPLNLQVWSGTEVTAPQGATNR

Molecular target: Histamine H2 receptor (Cavia porcellus) (UniProt P47747)
Experiment: Antagonism of histamine stimulated rate of beating of guinea pig right atrium mediated by Histamine H2 receptor
Assay type: functional, tissue-based
Conditions: Cardiac atrium

CCOP(=O)(O)/N=C(\NC)NCCSCc1[nH]cnc1C
-Log KB: 4.48
